Data: patent US4585859A, “Analogues of morpholinyl daunorubicin and morpholinyl doxorubicin” (priority 1984, dated 1986)

Tested on: L1210 leukemia
Conditions: in vivo, ip

SMILES | Mouse Antitumor Efficacy at Optimum Dose, % T/C | Optimum Dose (mouse)
COc1cccc2c1C(=O)c1c(O)c3c(c(O)c1C2=O)C[C@@](O)(C(=O)CO)C[C@@H]3O[C@H]1C[C@H](N2CCOCC2C#N)[C@H](O)[C@H](C)O1 (stereo partly shown) [NSC 357704, 3'-deamino-3'-(3"-cyano-4"-morpholinyl)doxorubicin] | 164% and > 164% and 166% | 
COc1cccc2c1C(=O)c1c(O)c3c(c(O)c1C2=O)C[C@@](O)(C(=O)CO)C[C@@H]3O[C@H]1C[C@H](N)[C@H](O)[C@H](C)O1 [doxorubicin] | 168% and 173% | 
COc1cccc2c1C(=O)c1c(O)c3c(c(O)c1C2=O)C[C@@](O)(C(O)CO)C[C@@H]3O[C@H]1C[C@H](N2CCOCC2C#N)[C@H](O)[C@H](C)O1 (stereo partly shown) [NSC 360291, 3'-deamino-3'-(3"-cyano-4"-morpholinyl)-13-dihydrodoxorubicin] | 152% and > 128% and > 148% | 0.025 mg/kg and 0.05 mg/kg

Several values for one entry are separate records, joined by “and”; a condition that tells them apart may be missing. Equal values may be shown once.
